Laboratory results published in publication PMC4570798, “Characterisation of a Novel Anti-CD52 Antibody with Improved Efficacy and Reduced Immunogenicity” (PLoS ONE, 2015).

Protein sequences, listed by entry. Tags and fused reporters are not part of them. Lines headed by an entry give the natural chain unless they say otherwise; changes in a name come on top.
UniProt P31358: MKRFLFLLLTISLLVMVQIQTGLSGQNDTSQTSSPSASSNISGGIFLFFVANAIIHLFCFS

Target: T1, CD52 on the surface of HUT78 and REH^++ cells (Homo sapiens, UniProt P31358)
T1 construct: CD52, endogenous on the human lymphoid cell lines HUT78 and REH (high-expressing ++ clone); The introduction describes mature CD52 as a 12-residue peptide, glycosylated at Asn-3 and GPI-anchored; also called cell-surface CD52; surface CD52; source: endogenous, on HUT78 cells and REH^++ cells
T1 chain: GQNDTSQTSSPS
Assay: flow cytometry on cells; direct binding to HUT78 cells; varying concentrations of antibody, 1 hour at 4°C in FC buffer (PBS pH 7.4, 1% BSA, 0.05% sodium azide); goat anti-human IgG F(ab')2-PE
Conditions: one partner purified

- binding result: binds
B1: chimeric 2E8 antibody (antibody, V domains shown)
VH: EVHLMESGGGLVQPGGSLRLSCAASGFTFSRYGMSWVRQTPDKRLELVAMMKTKGGRTYYPDSVKGRFTISRDNAKNSLYLQMSSLKSEDTAIYFCASDGYYWGQGTTLTVSS
VL: not shown
